Assay: Solubility tests in anhydrous hexane (stirred 30 minutes at room temperature, filtered, solvent removed)
Assay type: physicochemical
Settings: result in words, relative to the Comparative Catalyst
Procedure: Into a vial was placed 0.097 g of 2,6-bis-[1-(2-chloro-4,6-dimethylphenylimino)ethyl]pyridine iron-silylneopentyl with 2.007 g of anhydrous hexane. This solution was stirred for 30 minutes at room temperature. The contents were then filtered through a buchner filter funnel with a frit having a 4-5.5 micron size. The solvent was then removed en vacuo.
Comparitive: Into a vial was placed 0.077 g 2,6-bis-[1-(2-chloro-4,6-dimethylphenylimino)ethyl]pyridine iron dichloride with 2.008 g of anhydrous hexane (Sigma Aldrich). This solution was stirred for 30 minutes at room temperature. The contents were then filtered through a buchner filter funnel with a frit having a 4-5.5 micron size. The solvent was then removed en vacuo.

In the case of “2,6-bis-[1-(2-chloro-4,6-dimethylphenylimino)ethyl]pyridine iron-silylneopentyl [Catalyst 2]”, the “solubility in hydrophobic (nonpolar) solvents compared to the Comparative Catalyst” value is reported as “significantly improved solubility”.
